# Values quoted from earlier work, collected in PubChem BioAssay AID1811 (Shanghai Institute of Organic Chemistry, 2009).
# The other results are listed elsewhere or left out. The source made the active and inactive calls. Where no limit is named, active and inactive come without a cut-off here.
# System: beta-lactamase
# Experiment: PubChem AID 1811
# Conditions: PDB complex binding affinities from literature
smiles,measurement,value
O=C(Cc1cccs1)N[C@H]([Al])c1cccc(C(=O)O)c1,outcome,active
